The source of these data is patent US20080131534A1, “USE OF A PLANT EXTRACT OR PLANT JUICE” (Melbrosin International Produktions- und Vertriebs GesmbH & …, priority 2006, published 2008).

Chains of the proteins cited; added tags and fusions are not shown. Residues count along the entry.
UniProt P37231, 238-503 limits assumed: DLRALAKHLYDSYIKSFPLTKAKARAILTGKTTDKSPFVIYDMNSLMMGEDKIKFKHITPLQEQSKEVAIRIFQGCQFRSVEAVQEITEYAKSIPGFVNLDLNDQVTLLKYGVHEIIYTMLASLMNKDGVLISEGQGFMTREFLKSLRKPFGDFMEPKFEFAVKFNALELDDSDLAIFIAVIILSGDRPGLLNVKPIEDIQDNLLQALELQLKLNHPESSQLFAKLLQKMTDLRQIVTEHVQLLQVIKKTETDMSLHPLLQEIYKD

This experiment deals with T1, PPAR-gamma (Homo sapiens, UniProt P37231).
T1 construct: purchased Invitrogen
The experiment in a line: Polar Screen PPAR Competitive Assay (fluorescence polarization ligand binding). Particulars: Table 3, active substances in Oregano. (Polarisation of emitted light reports the rotation of a fluorescent probe.)

As to `COc1cc(-c2[o+]c3cc(O)cc(O)c3cc2O)ccc1O` [PeonidinCl], the concentration giving a half-maximal response (EC50) was over 500 µM.

One may read the EC50 as the concentration that produces a half-maximal response. Read a low EC50 as an effect from little substance.
